We go through 21 substances from patent publication US11174301B2 (Takeda Pharmaceutical Company Limited, priority 2017, dated 2021).

Protein sequences, listed by entry. Tags and fused reporters are not part of them. Residues count along the entry.
UniProt P43220, 24-463: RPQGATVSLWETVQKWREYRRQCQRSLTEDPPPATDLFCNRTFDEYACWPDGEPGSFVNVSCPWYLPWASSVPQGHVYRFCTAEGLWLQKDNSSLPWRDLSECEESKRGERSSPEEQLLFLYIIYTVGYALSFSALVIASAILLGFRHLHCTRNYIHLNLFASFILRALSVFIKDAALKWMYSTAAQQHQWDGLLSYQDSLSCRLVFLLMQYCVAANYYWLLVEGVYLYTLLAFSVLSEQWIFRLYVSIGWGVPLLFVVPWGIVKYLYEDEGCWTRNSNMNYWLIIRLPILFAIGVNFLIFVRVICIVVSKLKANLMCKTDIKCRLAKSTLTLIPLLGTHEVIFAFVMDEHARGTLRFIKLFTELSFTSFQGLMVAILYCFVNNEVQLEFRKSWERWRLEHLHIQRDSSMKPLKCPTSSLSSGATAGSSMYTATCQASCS

The target of experiment [1] is T1, human GIPR (Homo sapiens, UniProt P48546).
T1 construct: expressed in transfected cells; host or cells: CHO-K1 (CRE-LUC/CHO-K1 reporter cell; hGIPR/CRE-LUC/CHO-K1 line)
T1 sequence (P48546 22-466): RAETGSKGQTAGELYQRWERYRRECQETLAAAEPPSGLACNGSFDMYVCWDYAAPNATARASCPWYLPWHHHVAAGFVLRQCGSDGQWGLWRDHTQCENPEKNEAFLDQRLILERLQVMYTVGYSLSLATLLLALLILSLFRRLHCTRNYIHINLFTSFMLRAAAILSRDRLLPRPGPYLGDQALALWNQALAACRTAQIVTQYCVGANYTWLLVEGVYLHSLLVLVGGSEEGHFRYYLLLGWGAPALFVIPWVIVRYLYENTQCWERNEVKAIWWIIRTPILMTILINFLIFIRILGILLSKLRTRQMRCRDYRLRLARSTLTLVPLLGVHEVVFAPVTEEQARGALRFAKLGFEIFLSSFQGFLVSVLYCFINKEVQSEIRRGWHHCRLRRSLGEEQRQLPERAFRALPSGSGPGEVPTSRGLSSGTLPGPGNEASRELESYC
Put plainly: Agonist activity on human GIPR, CRE-luciferase reporter assay with increase in intracellular cAMP as indicator. The format is cell-based. The conditions noted are these: hGIPR/CRE-LUC/CHO-K1 cells, 4 hours incubation, 10 nM GIP = 100%. Here is the method: (2) Construction of Reporter Plasmid Expressing Cell
(4) Transfer of Human GIPR Gene to CRE-LUC/CHO-K1 Cell and Obtaining of Expressing Cell
Subsequently, the cell line inducing the luciferase expression, hGIPR/CRE-LUC/CHO-K1 cell, was selected from the obtained transformant by adding GIP.
(§1) Steady-Glo (Promega) was added in amounts of 30 μL and shaken under light shielding. 20 Minutes later, luciferase activity was measured using a plate reader Envision (PerkinElmer).

Experiment [2] has as its target T2, human GLP-1R (Homo sapiens, UniProt P43220).
T2 construct: expressed in transfected cells; host or cells: CHO-K1 (hGLP-1R/CRE-luc/CHO-K1 line)
Put plainly: Agonist activity on human GLP-1R, CRE-luciferase reporter assay with increase in intracellular cAMP as indicator. It is filed as cell-based. As to conditions: hGLP-1R/CRE-luc/CHO-K1 cells, 4 hours incubation, 10 nM GLP-1 = 100%.
From the text: (3) Construction of Reporter Plasmid
(5) Construction of Expression Plasmid of Human GLP-1R Gene
(6) Transfer of Human GLP-1R Gene and Reporter Plasmid to CHO-K1 Cell and Obtaining of Expressing Cell
The Cre-luc (Zeo) obtained in (3) and the plasmid hGLP-1/pIRESneo3 obtained in (5) were transferred to the CHO-K1 cell to obtain a transformant. Subsequently, the cell line inducing the luciferase expression, hGLP-1R/CRE-luc/CHO-K1 cell, was selected from the obtained transformant by adding GLP-1.
as §1

The target of experiment [3] is T1, human GIPR. Put plainly: Binding activity to human GIPR using [125I]-GIP (GIPR_VLP). As to conditions: [125I]GIP 100 pM, room temperature 2 hours. Here is the method:
The GF/C glass fiber filter 96-well plate in which VLP was trapped was dried at 42° C. overnight. Thereafter, MicroScint-O (PerkinElmer 6013611) was added to the GF/C glass fiber filter 96-well plate sealed using a backseal and the plate was sealed using a topseal.

As to “Ac-Tyr-Aib-Glu-Gly-Thr-Iva-Ile-Ser-Asp-Tyr-Ser-Ile-Aib-Lys(Eda-GGGGG-)-Asp-Arg-Aib-Ala-Gln-Aib-Asn-Phe-Val-Asn-Trp-Iva-Leu-Ala-Gln-Arg-Pro-Ser-Ser-Gly-Ala-Pro-Pro-Pro-Ser-NH2 [Compound 435]”, the EC50 in experiment [1] was 0.051 nM; in experiment [2] it was > 1000 nM. The substance further showed an IC50 in experiment [3] of 18 nM.
As to “H-MeTyr-Aib-Glu-Gly-Thr-Iva-Ile-Ser-Asp-Tyr-Ser-Ile-Aib-Leu-Asp-Arg-Lys(Eda-PEG(3)-PEG(3)-)-Ala-Gln-Aib-Asn-Phe-Val-Asn-Trp-Iva-Leu-Ala-Gln-Arg-Pro-Ser-Ser-Gly-Ala-Pro-Pro-Pro-Ser-NH2 [Compound 307]”, the EC50 in experiment [1] was 0.04 nM; in experiment [2] it was > 1000 nM. In addition, in experiment [3], the IC50 amounted to 5 nM.
For the substance “H-MeTyr-Aib-Glu-Gly-Thr-Iva-Ile-Ser-Asp-Tyr-Ser-Ile-Aib-Lys(Oda-GGGGG-)-Asp-Arg-Aib-Ala-Gln-Aib-Asn-Phe-Val-Asn-Trp-Iva-Leu-Ala-Gln-Arg-NH2 [Compound 415]”, the results for the EC50 in experiment [1] and in experiment [2] were 0.024 nM and > 1000 nM, respectively. In experiment [3], this substance returned a half-maximal inhibitory concentration (IC50) of 4.3 nM.
Turning to “H-MeTyr-Aib-Glu-Gly-Thr-Iva-Ile-Ser-Asp-Tyr-Ser-Ile-Aib-Lys(Oda-GGGGG-)-Asp-Arg-Aib-Ala-Gln-Aib-Asn-Phe-Val-Asn-Trp-Iva-Leu-Ala-Gln-Arg-Pro-Ser-Ser-Gly-Ala-Pro-Pro-Pro-Ser-OH [Compound 441]”, the EC50 in experiment [1] is 0.031 nM; in experiment [2], > 1000 nM. Besides, the concentration for half-maximal inhibition (IC50) in experiment [3] stood at 3.8 nM.
Turning to “H-Tyr-Aib-Glu-Gly-Thr-Val-Lys-Ser-Asp-Tyr-Ser-Ile-Aib-Leu-Asp-Lys-Gln-Ala-Gln-Aib-Glu-Phe-Val-Lys-Trp-Leu-Leu-Lys-Gly-Gly-Pro-Ser-Ser-Gly-Ala-Pro-Pro-Pro-Ser-Lys-NH2 [Compound 8]”, the results for the EC50 in experiment [1] and in experiment [2] were 0.079 nM and > 1000 nM, respectively. For the same substance, the IC50 in experiment [3] turned out to be 17 nM.
The corresponding values for “H-Tyr-Aib-Glu-Gly-Thr-Val-Lys-Ser-Asp-Tyr-Ser-Ile-Leu-Leu-Asp-Lys-Gln-Ala-Gln-Aib-Glu-Phe-Val-Lys-Trp-Leu-Leu-Lys-Gly-Gly-Pro-Ser-Ser-Gly-Ala-Pro-Pro-Pro-Ser-Lys-NH2 [Compound 10]” are 0.016 nM, > 1000 nM and 5.8 nM.
The corresponding values for “H-Tyr-Aib-Glu-Gly-Thr-Val-Val-Ser-Leu-Tyr-Ser-Ile-Aib-Leu-Asp-Arg-Gln-Ala-Gln-Aib-Glu-Phe-Val-Arg-Trp-Leu-Leu-Arg-Gly-Gly-Pro-Ser-Ser-Gly-Ala-Pro-Pro-Pro-Ser-Arg-NH2 [Compound 30]” are 0.01 nM, > 1000 nM and 1.3 nM.
For “H-Tyr-Aib-Glu-Gly-Thr-Val-Val-Ser-Leu-Tyr-Ser-Ile-Aib-Leu-Asp-Lys-Gln-Ala-Gln-Aib-Glu-Phe-Val-Lys-Trp-Aib-Leu-Lys-Gly-Gly-Pro-Ser-Ser-Gly-Ala-Pro-Pro-Pro-Ser-Lys-NH2 [Compound 42]” the same measures were 0.0069 nM, > 1000 nM and 1.1 nM.
Regarding “H-Tyr-Aib-Glu-Gly-Thr-Val-Val-Ser-Phe-Tyr-Ser-Ile-Aib-Leu-Asp-Lys-Gln-Ala-Gln-Aib-Glu-Phe-Val-Lys-Trp-Leu-Leu-Lys-Gly-Gly-Pro-Ser-Ser-Gly-Ala-Pro-Pro-Pro-Ser-Lys-NH2 [Compound 7]”, the EC50 is 0.021 nM in experiment [1] and > 1000 nM in experiment [2]. Further, the 50% inhibitory concentration (IC50) in experiment [3] worked out at 5.9 nM.
The corresponding values for “Me-Tyr-Aib-Glu-Gly-Thr-Iva-Ile-Ser-Asp-Tyr-Ser-Ile-Aib-Leu-Asp-Arg-Lys(Eda-GGGGG-)-His-Gln-Aib-Asn-Phe-Val-Asn-Trp-Iva-Leu-Ala-Gln-Arg-Pro-Ser-Ser-Gly-Ala-Pro-Pro-Pro-Ser-NH2 [Compound 493]” are 0.046 nM, > 1000 nM and 25 nM.
The corresponding values for “Me-Tyr-Aib-Glu-Gly-Thr-Iva-Ile-Ser-Asp-Tyr-Ser-Ile-Aib-Leu-Asp-Arg-Lys(Heda-GGGGGG-)-Ala-Gln-Aib-Asn-Phe-Val-Asn-Trp-Iva-Leu-Ala-Gln-Arg-Pro-Ser-Ser-Gly-Ala-Pro-Pro-Pro-Ser-NH2 [Compound 494]” are 0.0044 nM, > 1000 nM and 3.2 nM.
Regarding “Me-Tyr-Aib-Glu-Gly-Thr-Iva-Ile-Ser-Asp-Tyr-Ser-Ile-Aib-Leu-Asp-Arg-Lys(Heda-GGGGGG-)-His-Gln-Aib-Asn-Phe-Val-Asn-Trp-Iva-Leu-Ala-Gln-Arg-Pro-Ser-Ser-Gly-Ala-Pro-Pro-Pro-Ser-NH2 [Compound 503]”, the EC50 in experiment [1] was 0.0051 nM; in experiment [2], > 1000 nM. Besides, the IC50 in experiment [3] came out at 8 nM.
Turning to “Me-Tyr-Aib-Glu-Gly-Thr-Iva-Ile-Ser-Asp-Tyr-Ser-Ile-Aib-Leu-Asp-Arg-Lys(Hepda-GGGGG-)-His-Gln-Aib-Asn-Phe-Val-Asn-Trp-Iva-Leu-Ala-Gln-Arg-Pro-Ser-Ser-Gly-Ala-Pro-Pro-Pro-Ser-NH2 [Compound 502]”, the concentration giving a half-maximal response (EC50) in experiment [1] was 0.0084 nM; in experiment [2], > 1000 nM.
In the case of “Me-Tyr-Aib-Glu-Gly-Thr-Iva-Ile-Ser-Asp-Tyr-Ser-Ile-Aib-Leu-Asp-Arg-Lys(Hepda-GGGGGG-)-Ala-Gln-Aib-Asn-Phe-Val-Asn-Trp-Iva-Leu-Ala-Gln-Arg-Pro-Ser-Ser-Gly-Ala-Pro-Pro-Pro-Ser-NH2 [Compound 495]”, the concentration giving a half-maximal response (EC50) in experiment [1] was 0.0058 nM; in experiment [2], > 1000 nM. Moreover, in experiment [3], the IC50 was 4.6 nM.
“Me-Tyr-Aib-Glu-Gly-Thr-Iva-Ile-Ser-Asp-Tyr-Ser-Ile-Aib-Leu-Asp-Arg-Lys(Hepda-GGGGGG-)-His-Gln-Aib-Asn-Phe-Val-Asn-Trp-Iva-Leu-Ala-Gln-Arg-Pro-Ser-Ser-Gly-Ala-Pro-Pro-Pro-Ser-NH2 [Compound 504]”: the 50% effective concentration (EC50) in experiment [1] was 0.0089 nM; in experiment [2], > 1000 nM. The substance also came in with an IC50 in experiment [3] of 9.1 nM.
The corresponding values for “Me-Tyr-Aib-Glu-Gly-Thr-Iva-Ile-Ser-Asp-Tyr-Ser-Ile-Aib-Leu-Asp-Arg-Lys(Oda-GGGGG-)-His-Gln-Aib-Asn-Phe-Val-Asn-Trp-Iva-Leu-Ala-Gln-Arg-Pro-Ser-Ser-Gly-Ala-Pro-Pro-Pro-Ser-NH2 [Compound 491]” are 0.017 nM, > 1000 nM and 13 nM.
For “Me-Tyr-Aib-Glu-Gly-Thr-Iva-Ile-Ser-Asp-Tyr-Ser-Ile-Aib-Leu-Asp-Arg-Lys(Oda-GGGGGG-)-Ala-Gln-Aib-Asn-Phe-Val-Asn-Trp-Iva-Leu-Ala-Gln-Arg-Pro-Ser-Ser-Gly-Ala-Pro-Pro-Pro-Ser-NH2 [Compound 496]” the same measures were 0.013 nM, > 1000 nM and 10 nM.
For “Me-Tyr-Aib-Glu-Gly-Thr-Iva-Ile-Ser-Asp-Tyr-Ser-Ile-Aib-Leu-Asp-Arg-Lys(Oda-GGGGGG-)-His-Gln-Aib-Asn-Phe-Val-Asn-Trp-Iva-Leu-Ala-Gln-Arg-Pro-Ser-Ser-Gly-Ala-Pro-Pro-Pro-Ser-Arg-NH2 [Compound 486]” the same measures were 0.025 nM, > 1000 nM and 17 nM.
“Me-Tyr-Aib-Glu-Gly-Thr-Iva-Ile-Ser-Asp-Tyr-Ser-Ile-Aib-Leu-Asp-Arg-Lys(Oda-GGGGGG-)-His-Gln-Aib-Asn-Phe-Val-Asn-Trp-Iva-Leu-Ala-Gln-Arg-Pro-Ser-Ser-Gly-Ala-Pro-Pro-Pro-Ser-NH2 [Compound 492]”: the half-maximal effective concentration (EC50) was 0.018 nM in experiment [1] and > 1000 nM in experiment [2]. Further, the IC50 in experiment [3] turned out to be 13 nM.
For the substance “Me-Tyr-Aib-Glu-Gly-Thr-Iva-Ile-Ser-Asp-Tyr-Ser-Ile-Aib-Lys(Eda-GGGGGG-)-Asp-Arg-Aib-His-Gln-Aib-Asn-Phe-Val-Asn-Trp-Iva-Leu-Ala-Gln-Arg-Pro-Ser-Ser-Gly-Ala-Pro-Pro-Pro-Ser-Arg-NH2 [Compound 522]”, the results for the half-maximal effective concentration (EC50) in experiment [1] and in experiment [2] were 0.12 nM and > 1000 nM, respectively.
In the case of “Methyl-Tyr-Aib-Glu-Gly-Thr-Phe-Ile-Ser-Asp-Tyr-Ser-Ile-Ala-Leu-Asp-Arg-Ile-Ala-Gln-Gln-Asp-Phe-Val-Asn-Trp-Leu-Leu-Ala-Gln-Arg-Pro-Ser-Ser-Gly-Ala-Pro-Pro-Pro-Ser-Arg-NH2 [Compound 59]”, in experiment [2], the EC50 was > 1000 nM. The same substance registered an IC50 in experiment [3] of 1.1 nM.
